Each structure is given as a SMILES string. The entries are a selection whose mix differs from that of the whole data set. Calls of active or inactive are those of the source. Calls come from the whole dose curve; as a rule, active = well fitted activation curve with a large enough effect; inconclusive = small, poorly fitted or top-dose-only effect; inactive = no such curve, though single readings can be large or run the other way. A call without a number means that no potency is given here.

A short description of the experiment: qHTS Assay for Small Molecule Inhibitors of Mitochondrial Division or Activators of Mitochondrial Fusion. Note: nearly all actives have a fitted effect of over 45% in size. The settings on record: S. cerevisiae fusion-defective mutant growth rescue, CellTiterGlo 48 h; series mostly up to 46.1 µM. An excerpt:
NIH Chemical Genomics Center [NCGC] NIH Molecular Libraries Probe Production centers Network [MLPCN] MLPCN Grant: MH081279-01 Assay Submitter (PI): Jodi M. Nunnari NCGC Assay Overview: The budding yeast S. cerevisiae is a powerful system to study mitochondrial fusion. Unlike other organisms, yeast cells without functional mitochondrial DNA (mtDNA) can be propagated and studied as long as they maintain a mitochondrial compartment and are provided with a fermentable carbon source. When mitochondrial fusion is blocked in yeast, mitochondrial tubules rapidly fragment and division continues unopposed. Under conditions where fusion is compromised in mammalian cells, nearly identical changes in mitochondrial structure have been observed. Thus, these findings indicate that steady state mitochondrial structure in cells is a characteristic and specific indicator of fusion activity. Mounting evidence has pointed to a connection between mitochondrial dynamics and apoptosis in mammalian cells. These studies indicate that in mammalian cells mitochondrial dynamics are more integrated into cellular processes than in yeast cells and have evolved not only to distribute the organelle but also to aid in the regulation of cellular homeostasis. Mitochondrial fusion proteins attenuate apoptosis by inhibiting the release of cytochrome c from mitochondria, in part by controlling cristae structures. Thus, small molecules that inhibit mitochondrial […] may promote apoptosis and potentially act as novel chemotherapeutics and stimulation of apoptosis has become an attractive target of anti-cancer therapies. To identify inhibitors of mitochondrial division, we exploit the growth phenotypes of mitochondrial fusion-defective mutants. The temperature sensitive fusion alleles, such as fzo1-1 and mgm1-5, cause mitochondrial membranes to fragment in cells under non-permissive conditions and cells lose mtDNA, and are unable to grow in the presence of non-fermentable carbon source glycerol. Inhibiting mitochondrial division rescues growth. We have developed and optimized a luminescence cell viability assay in 1536 well format for the identification of inhibitors in the yeast mitochondrial fusion-defective assay.
The yeast glycerol stocks where kindly supplied by the laboratory of Dr. Jodi Nunnari, University of California, Davis. All yeast glycerol stock solutions were stored in single use aliquots at -80C. The CellTiterGlo luminescence reagent, containing luciferase and luciferin, were purchased from Promega, and the reagents were stored according to manufacturer's instructions. The Buffer components for the YPEG yeast growth medium were purchased from Sigma-Aldrich (St. Louis, MO). YPEG growth medium: 1% (w/v) yeast extract, 2% (w/v) Bacto-peptone, 3% Ethanol, 3% glycerol, 0.4mM Tryptophan, 0.36mM Adenine. qHTS Assay Protocol: 1.#Dispense 2.5 ul yeast growth medium per 1536 well plate. 2.#Transfer 23 nl per well of compound to plate. 3.#Dispense 2.5 ul yeast solution at appropriate seeding density per well. 4.#Incubate for 48 hours at 37C. 5.#Dispense 5 ul of CellTiterGlow solution per well. 6.#Incubate at ambient for 10 minutes. 7.#Read using bio-luminescence protocol on Viewlux.
With `O=C(OC1CN2CCC1CC2)c1ccccc1` (stereo not given), the Potency result was “inactive”. As to `CCC(=O)N1C2C3N(C(=O)CC)C1C1N(C(=O)CC)C(C(N1C(=O)CC)N3C(=O)CC)N2C(=O)CC`, the Potency result is “inactive”. In the case of `O=C(NC1CCS(=O)(=O)C1)NP(=S)(Oc1ccccc1)Oc1ccccc1` (stereo not given) it was “inactive”.

As to `CCNC(=S)/N=C(\N)N[N+](=O)[O-]`, the Potency result is “inactive”. Regarding `c1ccc(-c2nn[nH]n2)c(-c2nn[nH]n2)c1`, the Potency entry is “inactive”. In the case of `CCOC(=O)NC(Sc1ccccc1)C(Cl)(Cl)Cl` (stereo not given), the Potency entry is “inactive”. Turning to `Cc1ccc(NP(=O)(Oc2cccc(C)c2)Oc2cccc(C)c2)nc1`, the Potency entry is “inactive”. As to `CC(=O)Nc1ccc([As](=O)(O)O)c(O)c1`, the Potency result is “inactive”. In the case of `CC(=O)Nc1ccc(Oc2c([N+](=O)[O-])cc([N+](=O)[O-])cc2[N+](=O)[O-])cc1` it was “inactive”; in that of `CC(=O)c1ccc(N2CC2c2ccncc2)cc1` (stereo not given), “inactive”; in that of `Cc1ccccc1CN(C)C(=O)COC(=O)C(O)(c1ccccc1)c1ccccc1`, “inactive”. As to `C[C@@H]1C=CCP(=O)(Oc2ccccc2)O1` (stereo not given in full), the Potency entry was “inactive”. On to `C[C@H]1OP(=O)(Oc2ccccc2)C[C@@H]2O[C@@H]21` (stereo not given in full), for which the Potency result was “inactive”.

Take `CC(C)(C)C(=O)NC(Sc1ccccc1)C(Cl)(Cl)Cl` (stereo not given): the Potency entry was “inactive”. As to `O=P1(Nc2nc3ccc(Cl)cc3s2)COc2ccccc2O1` (stereo not given), the Potency result was “inactive”. In the case of `CCOc1ccc(C2=NCC(CBr)S2)cc1` (stereo not given) it was “inactive”. With `c1nnnn1CCn1cnnn1`, the Potency entry was “inactive”.

Regarding `O=P(Nc1nccs1)(c1ccccc1)c1ccccc1`, the Potency entry is “inactive”. Regarding `CC(C)C(=O)NC(Sc1ccccc1)C(Cl)(Cl)Cl` (stereo not given), the Potency result was “inactive”.

In the case of `Nc1ccc([As](=O)(O)c2ccc([N+](=O)[O-])cc2)cc1`, the Potency result was “inactive”. With `C(Cc1nn[nH]n1)Cc1nn[nH]n1`, the Potency result was “inactive”. Take `O=C(OC1CN2CCC1CC2)c1cccc(Cl)c1` (stereo not given): the Potency result was “inactive”. Regarding `O=[N+]([O-])c1ncn(CCn2cnc([N+](=O)[O-])n2)n1`, the Potency entry was “inactive”. The same measure for `CC(=O)NC(SC(=S)N(C)C)C(Cl)(Cl)Cl` (stereo not given): “inactive”; for `O=[N+]([O-])c1ccc(O)c(/C=N/Nc2ccc([N+](=O)[O-])cc2[N+](=O)[O-])c1`: “inactive”.

On to `O=[As](O)(c1ccccc1)c1ccc(O)cc1`, for which the Potency result was “inactive”. In the case of `O=P(Nc1nc2ccccc2s1)(c1ccccc1)c1ccccc1` it was “inactive”; in that of `C[C@H]1OP(=O)(Oc2ccccc2)[C@H](O)[C@H](O)[C@H]1N=[N+]=[N-]` (stereo not given in full), “inactive”. Turning to `CN(C)C1(CNC(=O)c2ccc(Cl)c(S(N)(=O)=O)c2)CCCCC1`, the Potency entry was “inactive”. In the case of `O=P(Nc1ccccn1)(c1ccc(Br)cc1)c1ccc(Br)cc1` it was “inactive”.

These data come from PubChem BioAssay AID485298 (National Center for Advancing Translational Sciences (NCATS), 2010).
